Measurements as given in ChEMBL document CHEMBL4138091, “Quinazoline based α1-adrenoreceptor antagonists with potent antiproliferative activity in human prostate cancer cell lines” (Eur J Med Chem, 2017).

Protein sequences, listed by entry. Tags and fused reporters are not part of them.
UniProt P35368, whole entry: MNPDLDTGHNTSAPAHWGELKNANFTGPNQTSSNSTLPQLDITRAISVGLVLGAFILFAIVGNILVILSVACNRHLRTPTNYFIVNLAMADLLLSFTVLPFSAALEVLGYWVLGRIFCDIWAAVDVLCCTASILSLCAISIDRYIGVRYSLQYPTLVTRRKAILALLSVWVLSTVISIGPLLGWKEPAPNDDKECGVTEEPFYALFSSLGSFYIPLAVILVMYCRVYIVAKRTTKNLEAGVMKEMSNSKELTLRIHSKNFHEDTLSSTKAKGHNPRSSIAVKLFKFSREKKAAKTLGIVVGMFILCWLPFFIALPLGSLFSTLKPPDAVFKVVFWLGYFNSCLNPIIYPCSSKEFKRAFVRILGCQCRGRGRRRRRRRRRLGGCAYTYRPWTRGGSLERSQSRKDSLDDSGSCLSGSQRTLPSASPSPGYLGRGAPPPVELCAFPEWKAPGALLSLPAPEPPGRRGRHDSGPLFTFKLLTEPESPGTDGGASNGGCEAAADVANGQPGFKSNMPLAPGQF

Target: Alpha-1B adrenergic receptor (Homo sapiens, UniProt P35368)
Assay: Displacement of [3H]prazosin from human alpha1B adrenoceptor expressed in CHO cell membranes after 30 mins

## COc1cc2nc(N3CCN(C(=O)C4COc5ccccc5O4)CC3)nc(N)c2cc1OC (stereo unspecified) [DOXAZOSIN]
  Ki: 631 pM
